This experiment concerns the target WDR5 (Myc binding site) (Homo sapiens, UniProt P61964). The experiment can be described thus: BLI full binding curves, WDR5 Myc-site peptides.

We go through 1 molecule from publication PMC12723675, “Evaluating BindCraft for Generative Design of High-Affinity Peptides” (ACS Chemical Biology, 2025).

Broadly, the Kd is the constant that tells how readily two partners part at equilibrium. Higher therefore signals weaker binding.

In turn, `CSCC[C@@H]1NC(=O)[C@H](Cc2ccccc2)NC(=O)[C@H](CCC(N)=O)NC(=O)[C@@H](NC(=O)[C@H](Cc2ccccc2)NC(=O)[C@H](CC(=O)O)NC(=O)[C@H](CCC(=O)O)NC(=O)[C@H](CC(=O)O)NC(=O)[C@H](CC(=O)O)NC(=O)CCNC(=O)[C@H](CCCCNC(=O)CCCC[C@@H]2SC[C@@H]3NC(=O)N[C@@H]32)NC(C)=O)CSCc2cccc(c2)CSC[C@@H](C(=O)N[C@@H](CC(=O)O)C(=O)N[C@@H](CC(C)C)C(=O)N[C@@H](CC(=O)O)C(=O)N[C@@H](CCC(=O)O)C(=O)N[C@@H](Cc2ccccc2)C(=O)N[C@@H](CC(C)C)C(=O)N[C@@H](CCCCN)C(N)=O)NC1=O` [WDR5 Myc B1 stapled] registered a Kd of 39 nM.
